# This is a selection; strong and weak results do not stand in their true shares. Active and inactive are the calls of the source. Rule as the data show it: active = inhibition above about 50%; inactive = the rest.
# Assay: inhibitors of induced NF-kB luciferase reporter, primary screen, TCR NF-kB activation inhibitor project, cell-based, luminescence, uHTS (AID 435003)
# Details: Jurkat, PMA/ionomycin-induced NF-kB luciferase reporter, at 4 µM, hits give high values
row,Structure (SMILES),inhibition
1,N#Cc1ccc(C(=O)NCC2(N3CCCCC3)CCCCC2)cc1,inactive: -2.34%
2,CC(C)(C)OC(=O)N1CCC(N(C(=O)c2ccccc2)c2ccc(Cl)cc2)CC1,inactive: 3.37%
3,CN(C)C1(CNC(=O)c2cccc(C#N)c2)CCCCC1,inactive: -20%
4,CCCN1CCC(Nc2cc(OC)cc(OC)c2)CC1,inactive: 0.717%
5,c1ccc(CN2CCC(Nc3ccccc3)CC2)cc1,inactive: -3.12%
6,COc1cc(C(=O)NCC2(N3CCOCC3)CCCCC2)cc(OC)c1C,inactive: -6.89%
7,O=C(NCC1(N2CCOCC2)CCCCC1)c1cc(Br)ccc1Cl,inactive: -1.28%
8,COc1ccc(C(=O)NCC2(N3CCOCC3)CCCCC2)cc1OC,inactive: -2.3%
9,CCOC(=O)N1CCC(Nc2ccc(C)cc2)CC1,inactive: 7.5%
10,N/C(=N\O)c1c(N)no[n+]1[O-],inactive: -5.95%
11,O=C(OC1CN2CCC1CC2)C1c2ccccc2C=Cc2ccccc21 (configuration not stated),inactive: 13.5%
12,CCc1cc(C(=O)NCC2(N3CCCCC3)CCCCC2)sc1C,inactive: 4.72%
13,CN1CCC(Nc2ccc(F)c(Cl)c2)CC1,inactive: 0.885%
14,CCOc1ncccc1C(=O)NCC1(N2CCOCC2)CCCCC1,inactive: -4.16%
15,O=C(O)C1(Nc2ccccc2)CCN(Cc2ccccc2)CC1,inactive: -22.3%
16,CC(C)(C)OC(=O)N1CCC(Nc2ccccc2)CC1,inactive: 18%
17,CCCOc1ccc(C(=O)NCC2(N(C)C)CCCCC2)cc1,inactive: -12.5%
18,COc1cc(OC)cc(C(=O)NCC2(N3CCOCC3)CCCCC2)c1,inactive: -6.17%
19,COc1cccc(C(=O)N(c2cc(C)cc(C)c2)C2CCN(C(=O)OC(C)(C)C)CC2)c1,inactive: -0.0138%
20,CCC(CO)(C(=O)OC1CN2CCC1CC2)c1ccccc1 (configuration not stated),inactive: -7.04%
21,CN1CCC(Nc2ccc(Cl)cc2)CC1,inactive: -19.3%
22,CCCOc1ccc(C)cc1CN(CCCl)CCCl,inactive: -12.7%
23,COc1cc(OC)cc(C(=O)NCC2(N3CCCCC3)CCCCC2)c1,inactive: -2.68%

row,Structure (SMILES),inhibition
1,Fc1ccccc1NC1CCN(Cc2ccccc2)CC1,inactive: 0.66%
2,Cc1ccc(C(=O)NCC2(N3CCCCC3)CCCCC2)o1,inactive: 6.19%
3,CCN1CCC(Nc2cccc(F)c2)CC1,inactive: 1.75%
4,CN(C)c1ccc(C(=O)NCC2(N3CCCCC3)CCCCC2)cc1,inactive: -3.72%
5,O=C(NCC1(N2CCCCC2)CCCCC1)c1ccco1,inactive: -6.68%
6,CCOc1ccc(C)cc1CN(CCCl)CCCl,inactive: -8.25%
7,COc1ccc(NC2CCN(CCc3ccccc3)CC2)c(OC)c1,inactive: 7.56%
8,CCOC(=O)N1CCC(Nc2ccc(F)cc2)CC1,inactive: -6.34%
9,O=C(NCC1(N2CCCCC2)CCCCC1)c1ccc(F)cc1,inactive: 1.79%
10,CCCCOc1ccc(C(=O)NCC2(N3CCOCC3)CCCCC2)cc1,inactive: -12.6%
11,Cc1ccc(OCC(C)C)c(CN(CCCl)CCCl)c1,inactive: 0.716%
12,CCOC(=O)N1CCC(Nc2cccc(C)c2)CC1,inactive: -2.62%
13,COc1ccc(C(=O)NCC2(N3CCCCC3)CCCCC2)c(OC)c1OC,inactive: -7.03%
14,CC(C)(C)OC(=O)N1CCC(N(C(=O)c2ccccc2)c2ccc(F)cc2)CC1,inactive: 2.74%
15,COc1ccc(C(=O)NCC2(N3CCCCC3)CCCCC2)cc1,inactive: -20.2%
16,O=C(NCC1(N2CCCCC2)CCCCC1)c1cccs1,inactive: -5.28%
17,O=C(NCC1(N2CCCCC2)CCCCC1)c1ccc(=O)[nH]c1,inactive: -4.2%
18,CSc1ccccc1C(=O)NCC1(N2CCCCC2)CCCCC1,inactive: -21.6%
19,Cc1cc(C)cc(N(C(=O)c2ccccc2)C2CCN(C(=O)OC(C)(C)C)CC2)c1,inactive: -35.5%
20,O=C(NCC1(N2CCCCC2)CCCCC1)c1ccc(Cl)nc1,inactive: -5.04%
21,O=C(NCC1(N2CCOCC2)CCCCC1)c1cc2ccccc2o1,inactive: -4.59%
22,COc1ccc(Cl)cc1C(=O)NCC1(N2CCOCC2)CCCCC1,inactive: -5.62%
23,O=C(OC1CN2CCC1CC2)C1c2ccccc2Oc2ccccc21 (configuration not stated),inactive: 1.88%

row,Structure (SMILES),inhibition
1,O=C(NCC1(N2CCCCC2)CCCCC1)c1ccc(Cl)s1,inactive: 4.54%
2,N#CC1(Nc2ccccc2)CCN(Cc2ccccc2)CC1,inactive: 8.8%
3,CCOC(=O)N1CCC(Nc2ccc(OC)cc2)CC1,inactive: 14.6%
4,CC(C)c1ccc(NC2CCN(C(=O)OC(C)(C)C)CC2)cc1,inactive: -41.9%
5,CN(C)c1cccc(C(=O)NCC2(N3CCCCC3)CCCCC2)c1,inactive: 1.01%
6,COc1ccc(CN(CCCl)CCCl)cc1Cl,inactive: -5.08%
7,O=C(NCC1(N2CCOCC2)CCCCC1)c1cc(F)c(F)cc1Cl,inactive: -7.08%
8,COc1cc(OC)c(C(=O)NCC2(N(C)C)CCCCC2)cc1OC,inactive: -9.78%
9,O=C(NCC1(N2CCCCC2)CCCCC1)c1cncc(Br)c1,inactive: -0.97%
10,CN1CCC(Nc2cccc(F)c2)CC1,inactive: 3.93%
11,O=C(NCC1(N2CCCCC2)CCCCC1)c1ccc(OC(F)F)cc1,inactive: -14.4%
12,N#CC1(Nc2ccccc2)CCN(CCc2ccccc2)CC1,inactive: -4.9%
13,CCN1CCC(Nc2ccc(Cl)cc2)CC1,inactive: -17.8%
14,O=C(NCC1(N2CCCCC2)CCCCC1)c1cccc([N+](=O)[O-])c1,inactive: -11.5%
15,CSc1ccc(C(=O)NCC2(N3CCOCC3)CCCCC2)cc1,inactive: -0.991%
16,O=C(NCC1(N2CCCCC2)CCCCC1)c1cccc(C(F)(F)F)c1,inactive: 11.4%
17,COc1cc(C(=O)NCC2(N3CCCCC3)CCCCC2)ccc1OC(F)F,inactive: -0.982%
18,O=C(NCC1(N2CCOCC2)CCCCC1)c1cc(=O)[nH]c2ccccc12,inactive: 13.3%
19,CN1CCN(CCOC(=O)C(O)(c2ccccc2)c2ccccc2)CC1,inactive: 4.36%
20,COc1ccc(NC2CCN(C(=O)OC(C)(C)C)CC2)cc1,inactive: -0.654%
21,CC(C)c1ccc(C(=O)NCC2(N3CCOCC3)CCCCC2)cc1,inactive: -4.05%
